{"source": "ChEMBL document CHEMBL1133403", "about": "(Bioorg Med Chem Lett, 2000)", "key": {"Progesterone receptor [1]": {"target": "T1, Progesterone receptor (Homo sapiens, UniProt P06401)", "T1 sequence (P06401 whole entry)": "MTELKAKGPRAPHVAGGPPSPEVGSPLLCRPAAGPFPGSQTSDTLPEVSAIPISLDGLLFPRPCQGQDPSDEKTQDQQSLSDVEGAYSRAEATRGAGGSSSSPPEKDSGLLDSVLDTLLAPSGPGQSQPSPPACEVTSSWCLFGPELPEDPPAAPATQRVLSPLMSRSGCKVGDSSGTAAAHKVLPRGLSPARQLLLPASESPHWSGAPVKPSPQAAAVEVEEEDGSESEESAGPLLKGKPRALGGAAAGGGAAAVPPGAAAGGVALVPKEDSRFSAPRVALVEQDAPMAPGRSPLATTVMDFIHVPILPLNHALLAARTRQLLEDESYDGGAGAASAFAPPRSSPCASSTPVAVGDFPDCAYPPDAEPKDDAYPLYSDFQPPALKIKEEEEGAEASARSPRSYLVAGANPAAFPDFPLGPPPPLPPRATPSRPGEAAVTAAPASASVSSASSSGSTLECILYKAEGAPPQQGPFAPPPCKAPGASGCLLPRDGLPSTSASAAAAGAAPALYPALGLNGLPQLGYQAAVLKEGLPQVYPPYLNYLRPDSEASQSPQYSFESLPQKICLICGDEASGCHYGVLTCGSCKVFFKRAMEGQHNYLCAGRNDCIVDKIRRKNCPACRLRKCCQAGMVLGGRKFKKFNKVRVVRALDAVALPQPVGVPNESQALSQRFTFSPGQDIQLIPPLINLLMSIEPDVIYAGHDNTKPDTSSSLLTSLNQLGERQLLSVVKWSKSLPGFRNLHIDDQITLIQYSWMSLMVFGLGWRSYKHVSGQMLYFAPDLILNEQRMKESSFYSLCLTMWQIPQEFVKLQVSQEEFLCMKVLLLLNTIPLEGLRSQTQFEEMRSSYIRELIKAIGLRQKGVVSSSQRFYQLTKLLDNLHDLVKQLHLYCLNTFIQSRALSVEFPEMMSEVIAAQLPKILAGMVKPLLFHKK", "assay": "Antagonist activity against human progesterone receptor (hPR) in T47D human breast cancer cell line; NA=not active; call rule not given here", "type": "functional, cell-based"}, "Progesterone receptor [2]": {"target": "T1, Progesterone receptor", "assay": "Antagonist activity against human progesterone receptor (hPR) expressed in CV-1 cells; NA=not active", "type": "functional, cell-based"}}, "data": [{"smiles": "CC(=O)[C@H]1CC[C@H]2[C@@H]3CCC4=CC(=O)CC[C@]4(C)[C@H]3CC[C@]12C", "note": "[PROGESTERONE]", "values": [{"measurement": "IC50", "setting": "Progesterone receptor [1]", "value": "Not Active"}, {"measurement": "IC50", "setting": "Progesterone receptor [2]", "value": "Not Active"}]}]}
